The IC50 is the concentration at which inhibition is half-maximal.

This experiment concerns the target T1, NOD1 (Homo sapiens, UniProt Q9Y239).
T1 construct: THP-1 cells also express high levels of native functional NOD1 and NOD2 and respond to NOD stimulation by IL-8 secretion; endogenous in cells; host or cells: THP-1 cells (Istituto Zooprofilattico di Brescia)
T1 sequence (Q9Y239 1-953): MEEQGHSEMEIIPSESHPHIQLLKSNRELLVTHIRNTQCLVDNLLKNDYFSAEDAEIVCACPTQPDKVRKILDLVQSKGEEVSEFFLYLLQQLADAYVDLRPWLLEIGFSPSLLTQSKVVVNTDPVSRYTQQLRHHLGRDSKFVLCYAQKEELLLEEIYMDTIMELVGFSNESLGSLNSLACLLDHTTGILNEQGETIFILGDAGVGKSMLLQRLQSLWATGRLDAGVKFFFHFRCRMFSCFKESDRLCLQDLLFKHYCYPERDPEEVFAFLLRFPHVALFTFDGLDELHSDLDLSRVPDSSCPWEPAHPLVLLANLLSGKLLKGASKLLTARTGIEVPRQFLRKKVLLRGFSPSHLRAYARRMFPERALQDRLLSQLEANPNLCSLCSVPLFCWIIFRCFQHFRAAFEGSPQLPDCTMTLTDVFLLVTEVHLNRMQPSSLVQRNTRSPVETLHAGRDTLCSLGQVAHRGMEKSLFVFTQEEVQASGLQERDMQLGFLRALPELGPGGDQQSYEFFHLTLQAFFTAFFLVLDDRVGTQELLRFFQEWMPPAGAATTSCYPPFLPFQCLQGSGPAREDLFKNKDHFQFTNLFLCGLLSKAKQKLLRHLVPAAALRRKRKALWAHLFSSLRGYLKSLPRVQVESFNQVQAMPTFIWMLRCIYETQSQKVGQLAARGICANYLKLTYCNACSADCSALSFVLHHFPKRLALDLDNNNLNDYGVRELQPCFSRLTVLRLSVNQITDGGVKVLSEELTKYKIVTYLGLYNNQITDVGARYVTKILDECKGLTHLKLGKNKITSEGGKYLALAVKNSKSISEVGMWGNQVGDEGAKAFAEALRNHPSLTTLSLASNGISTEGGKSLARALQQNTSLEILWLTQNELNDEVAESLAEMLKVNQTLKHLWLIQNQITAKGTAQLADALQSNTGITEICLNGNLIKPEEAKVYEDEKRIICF
As to the kind of experiment: C12-iE-DAP (NOD1 agonist)-induced IL-8 secretion from THP-1 cells. The experiment is classed as cell-based. The following applies: 1 h pretreatment, C12-iE-DAP 10 µM, 20 h, read-out: IC50 (NOD1), inhibition of IL-8 release. Here is the method: For all experiments, THP-1 cells (Istituto Zooprofilattico di Brescia, Brescia, Italy) were diluted to 10^6 cells/mL in RPMI 1640 containing 2 mM L-glutamine, 0.1 mg/mL streptomycin, 100 IU/mL penicillin, 50 μM 2-mercaptoethanol, and supplemented with 10% heat-inactivated fetal calf serum (media) and cultured at 37 °C in 5% CO2. The experiments were carried out on passages 3–12. To evaluate IL-8 and TNF-α production, cultures were set up in 24-well culture plates containing 500 μL of cells. They were pretreated with selected NOD antagonists at increasing concentrations for 1 h before the addition of either MDP or C12-iE-DAP (both at 10 µM) and then incubated for 20 h. […]
IL-8 and TNF-α release from THP-1 cells were measured in cell-free supernatants obtained by centrifugation at 3000 rpm for 5 min and stored at −80 °C until measurement. IL-8 and TNF-α production were assessed by specific sandwich ELISA (Immunotools, Friesoythe, Germany; eBioScience/R&D Systems, Minneapolis, MN, USA). […]
All experiments were performed at least three times, with average values expressed as means ± standard deviation (SD). […] Statistical significance was determined either with the Mann-Whitney or Kruskal-Wallis followed by a post hoc Dunn’s multiple comparison test, as indicated in the figure legends. […] IC50 values of NOD1/2 inhibition were calculated by a nonlinear regression model using GraphPad Prism 6 software.

As for `Cc1ccc(S(=O)(=O)n2c(N)nc3ccccc32)cc1` [ML130], the IC50 came out at 2970 ± 310 nM.

Source of the values: PMC6747088, “THP-1 Cells and Pro-Inflammatory Cytokine Production: An In Vitro Tool for Functional Characterization of NOD1/NOD2 Antagonists” (International Journal of Molecular Sciences, 2019).
